In the library only some 13% were active in any assay of this set; here they are far more common.
KDM4E inh = JMJD2E (human) inhibition | 230,000 compounds, 1.6% hits | JMJD2E catalytic domain, FDH-coupled NADH fluorescence (FDH is formaldehyde dehydrogenase) | Potency, µM (top dose mostly 57.1 µM), for the others: top-dose activity change, negative = inhibition, hits mostly inhibitors | AID 2147 | B2RXH2; active = well fitted inhibition curve with a large enough effect, not every such curve was filed as active; inconclusive = small, poorly fitted or top-dose-only effect, or another doubt; inactive = no such curve, though single readings can be large or run the other way;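 also: potency is read from the fitted curve at half-maximal effect; 0% = wells with enzyme and -100% = buffer wells without enzyme; nearly all actives have a fitted effect of over 50% in size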
miR-21 FLuc = miR-21 reporter, rising signal; Potency, µM (titrated, usually from 38.3 µM), without a hit: at the highest dose reporter change, positive = more light; AID 2288; 340,000 tested, under 10 active; HeLa miR-21 FLuc reporter, luciferase, 48 h; active = well fitted rising curve with a large enough effect; inconclusive = small, poorly fitted or top-dose-only effect; inactive = no such curve, though single readings can be large or run the other way;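 note: % of control where 0% means no effect; miR-21 action dims this reporter so a rising signal means less miR-21 action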
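Compounds were titrated across several concentrations (up to approximately 40 uM) and incubated 48 hours with HeLa miR-21-FLuc reporter cells (miR-21 target sequence downstream of FLuc, endogenous miR-21). Readout was firefly luciferase luminescence after lytic detection reagent.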
Sfp inh = blocks B. subtilis Sfp PPTase activity; Q9F4F7; Biochemical Sfp PPTase activity, qHTS; Potency, µM, for the others: max response, negative = inhibition, most hits filed as inhibitors; actives 3.5% (n = 310,000); AID 1490; active = well fitted inhibition curve with a large enough effect; inconclusive = small, poorly fitted or top-dose-only effect, or another doubt; inactive = no such curve, though single readings can be large or run the other way;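 also: the enzyme is Sfp with the accession as filed and its product quenches rhodamine fluorescence; potency is read from the fitted curve at half-maximal effect; 0% = enzyme reaction without inhibitor and -100% = no enzyme wells; top concentration of the series not given in the record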
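After 15 min at room temperature with compound, 15 nM Sfp received 5 uM rhodamine-CoA plus 12.5 uM BHQ-2-ybbR (50 mM Hepes pH 7.6, 10 mM MgCl2). Rate came from the fluorescence difference over 30 min, ex 525/em 598 nm.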
ALDH1A1 inh = ALDH1A1 (human) enzyme inhibition. Purified ALDH1A1, NADH fluorescence, propionaldehyde substrate. Potency, µM (titrated, usually from 75.3 µM), inactives show at the highest dose activity, negative = inhibition, most hits filed as inhibitors. AID 1030. 220,000 compounds, 7.3% hits; active = well fitted inhibition curve with a large enough effect, not every such curve was filed as active; inconclusive = small, poorly fitted or top-dose-only effect, or another doubt; inactive = no such curve, though single readings can be large or run the other way;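 also: potency is read from the fitted curve at half-maximal effect; plate controls were no enzyme wells and a reference inhibitor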
Lamin A splicing = modulators of lamin A splicing. Potency, µM (top dose mostly 46.1 µM), inactives show at the highest dose ratio change, negative = inhibition, hits mostly inhibitors. 200,000 compounds, 0.01% hits. HeLa LMNA splicing GFP/RFP minigene ratio, 48 h. AID 1487; active = well fitted inhibition curve with a large enough effect in the signal ratio, with a control signal flat, not every such curve was filed as active; inconclusive = small, poorly fitted or top-dose-only effect, or effect the other way, or a change in a side signal; the % refers to the signal ratio; also: potency is read from the fitted curve at half-maximal effect; % is scaled to controls: 0 for no effect and ±100 for the full control effect
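Read-out is the ratio of GFP to DsRed2 object intensity, acquired by 488 nm laser-scanning cytometry on HeLa lamin A-EGFP minigene reporter cells. Compound incubation 48 hrs at 37 °C in Opti-MEM with 2% FBS; DMSO 0.5% final.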
G9a block = blocks human histone lysine methyltransferase G9a. G9a H3K9 monomethylation, AlphaScreen, 2 h. Potency, µM (top dose mostly 102 µM), for the others: top-dose activity, negative = inhibition, hits mostly inhibitors. 350,000 compounds, 8.8% hits; also: potency is read from the fitted curve at half-maximal effect; % is scaled to controls: 0 for no effect and ±100 for the full control effect; nearly all actives have a fitted effect of over 75% in size
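AlphaScreen read-out: biotin-H3K9 peptide (500 nM) methylation by 20 nM enzyme with 20 uM SAM, 2 h at room temperature after 15 min compound preincubation; anti-monomethyl H3K9 antibody plus donor/acceptor beads, 10 min dark.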
* marks the source's active call; other numbers are inactive results; ? = inconclusive; · = not tested or not shown; [ ] = remark or other dose. Unless noted, calls follow the shape of the dose curve; as a rule, active = well fitted curve in the direction sought with a large enough effect; inconclusive = small, poorly fitted or top-dose-only effect, or another doubt; inactive = no such curve, though single readings can be large; an effect the other way counts as inactive or inconclusive.

#1 CCOc1ccc(S(=O)(=O)Nc2ccc3c(c2)OCO3)c2cccnc12
#2 CCOc1ccc(S(=O)(=O)N2CCN(c3ccc(OC)cc3)CC2)c2cccnc12
#3 CCC(=O)Nc1ccccc1-c1nc2ccccc2n(CC(=O)c2ccc(C)c(C)c2)c1=O
#4 CCCN1C(C(=O)c2ccccc2)=C(OC(=O)C(C)(C)C)c2ccccc2S1(=O)=O
#5 CCN1C(C(=O)c2ccccc2)=C(OC(=O)c2ccc(Cl)cc2)c2ccccc2S1(=O)=O
#6 CCN1C(C(=O)c2ccccc2)=C(OC(=O)COc2ccc(OC)cc2)c2ccccc2S1(=O)=O
#7 CCCN1C(C(=O)c2ccccc2)=C(OC(=O)COc2ccccc2)c2ccccc2S1(=O)=O
#8 CCN1C(C(=O)c2ccccc2)=C(OC(=O)COc2ccc(C)cc2)c2ccccc2S1(=O)=O
#9 COC(=O)[C@@H]1C[C@@H]2CC[C@@H](O)C[C@@H]2N1Cc1ccc(-c2ccccc2)cc1
#10 CCN(CC)S(=O)(=O)c1cc([N+](=O)[O-])ccc1NNC(=O)Nc1ccccc1OC
Compound | 1 | 2 | 3 | 4 | 5 | 6 | 7 | 8 | 9 | 10
Lamin A splicing | ? | ? | · | · | · | · | · | · | · | 10%
ALDH1A1 inh | -4% | -8% | · | · | · | · | · | · | -2% | ?
Sfp inh | 56µM* | 18% | · | · | · | · | · | · | -1% | 50µM*
KDM4E inh | ? | 0% | · | · | · | · | · | · | -2% | -14%
G9a block | ? | 25%[2.33 µM] | -3%[59 µM] | -7%[59 µM] | -48%[59 µM] | 11µM* | 8.9µM* | 16µM* | · | 28µM*
miR-21 FLuc | -27% | 0% | -3% | ? | ? | ? | ? | ? | · | 0%

#11 CCN(CC)S(=O)(=O)c1cc([N+](=O)[O-])ccc1NNC(=O)Nc1ccc(F)cc1
#12 O=C(CCC(=O)N1CCOCC1)Nc1ccc(Cl)c(Cl)c1
#13 O=C(Cn1ncc2c(Cl)cccc21)NCc1cccc(Br)c1
#14 N#CCCN/N=C(\Cc1nc2ccccc2[nH]1)c1ccccc1
#15 N#CCCN/N=C(/Cc1nc2ccccc2[nH]1)c1ccc(Cl)cc1
#16 c1ccc(N/N=C(\Cc2nc3ccccc3[nH]2)c2ccccc2)cc1
#17 Clc1cccc(/C(Cc2nc3ccccc3[nH]2)=N\Nc2ccccc2)c1
#18 Cc1ccc(N/N=C(\Cc2nc3ccccc3[nH]2)c2ccccc2)cc1
#19 CCN/N=C(\Cc1nc2ccccc2[nH]1)c1ccccc1
#20 COc1cccc([C@@H]2Oc3ccc(Br)cc3C(=O)[C@H]2OC(=O)Nc2cc(OC)c(OC)c(OC)c2)c1
Compound | 11 | 12 | 13 | 14 | 15 | 16 | 17 | 18 | 19 | 20
Lamin A splicing | ? | · | · | ? | -16% | -6% | -4% | ? | -2%[46 µM] | ·
ALDH1A1 inh | ? | · | · | ? | ? | 28µM* | ? | 10µM* | ? | -2%
Sfp inh | 45µM* | 8% | · | 1% | 22% | 9% | 11% | -9% | 7% | 9%
KDM4E inh | -9% | · | · | ? | ? | ? | -5% | ? | ? | -6%
G9a block | ? | 68% | -24%[59 µM] | 50µM* | ? | 1.4µM* | 6.3µM* | 7.1µM* | 16% | ·
miR-21 FLuc | 20% | -9% | -5% | -13% | -34% | -57% | -40% | -7% | -23% | ·

Four entries from above in a different format:
nr	Lamin A splicing	ALDH1A1 inh	Sfp inh	KDM4E inh	G9a block	miR-21 FLuc	structure
12	·	·	8%	·	68%	-9%	O=C(CCC(=O)N1CCOCC1)Nc1ccc(Cl)c(Cl)c1
18	?	10µM*	-9%	?	7.1µM*	-7%	Cc1ccc(N/N=C(\Cc2nc3ccccc3[nH]2)c2ccccc2)cc1
20	·	-2%	9%	-6%	·	·	COc1cccc([C@@H]2Oc3ccc(Br)cc3C(=O)[C@H]2OC(=O)Nc2cc(OC)c(OC)c(OC)c2)c1
13	·	·	·	·	-24%[59 µM]	-5%	O=C(Cn1ncc2c(Cl)cccc21)NCc1cccc(Br)c1

Next structures
#21 COc1ccc(OCC(=O)OCc2cc(=O)n3nc(C4CCCCC4)sc3n2)cc1
#22 O=C(CSc1nnc(-c2ccncc2)n1CC1CCCO1)NCc1ccccc1 (stereo unspecified)
#23 CC(Sc1nc(N)cc(N)n1)C(=O)NCC1CCCO1 (stereo unspecified)
#24 CC(Sc1nnc(-c2cccs2)n1N)C(=O)NCC1CCCO1 (stereo unspecified)
#25 Cc1csc(SC(C)C(=O)NCC2CCCO2)n1 (stereo unspecified)
#26 O=C(CSc1nnc(-c2cccs2)n1CC1CCCO1)c1cc2ccccc2o1 (stereo unspecified)
#27 Cc1ccc(-n2nc(-c3cccs3)cc2C(=O)NCC2CCCO2)c(C)c1 (stereo unspecified)
#28 CC(Sc1nnc(-c2ccco2)n1N)C(=O)NCC1CCCO1 (stereo unspecified)
#29 Cc1cc(Br)cc2c(C(=O)NCC3CCCO3)cc(-c3cccs3)nc12 (stereo unspecified)
#30 c1ccc(Nc2ncnc3ccc(-c4ccc5c(c4)OCO5)cc23)cc1
Compound | 21 | 22 | 23 | 24 | 25 | 26 | 27 | 28 | 29 | 30
Lamin A splicing | -7%[46 µM] | -2% | · | · | · | 9% | -13% | · | · | 16%
ALDH1A1 inh | · | -1% | · | · | · | 28µM* | 20µM* | · | · | 4%
Sfp inh | · | 12% | · | · | · | 5% | ? | · | -12% | 11%
KDM4E inh | · | 4% | · | · | · | -3% | -1% | · | · | ?
G9a block | -2%[59 µM] | -46%[12.7 µM] | 9%[12.7 µM] | 50µM* | 40µM* | 45µM* | ? | 11%[12.7 µM] | · | ·
miR-21 FLuc | -10% | -4% | · | · | · | -11% | 12% | · | -1% | ·

#31 COc1ccc(-n2nnnc2SC(C)C(N)=O)cc1 (stereo unspecified)
#32 CCN(CC)S(=O)(=O)c1ccc2c(c1)nc(SC(C)C(=O)NCC1CCCO1)n2CC (stereo unspecified)
#33 CCN(CC)S(=O)(=O)c1ccc2c(c1)nc(SC(C)C(N)=O)n2-c1ccc(OC)cc1 (stereo unspecified)
#34 COc1ccc2c(c1)CC/C(=C\C=C\c1ccccc1)C2=O
#35 COc1ccc2c(c1)CC/C(=C\Nc1ccc3c(c1)OCO3)C2=O
#36 O=C1/C(=C/Nc2ccc3c(c2)OCO3)CCc2ccccc21
#37 COc1ccc(N/C=C2\CCc3ccccc3C2=O)cc1
#38 COc1cccc(/C=C2\CCc3ccccc3C2=O)c1
#39 COc1ccc(S(=O)(=O)Nc2ccc3c(c2)OCO3)cc1
#40 COC(=O)c1ccccc1NC(=O)CCCn1c(C)c2cnn(-c3ccccc3)c(=O)c2c1C
Compound | 31 | 32 | 33 | 34 | 35 | 36 | 37 | 38 | 39 | 40
Lamin A splicing | 0% | · | 19% | ? | -22% | -1% | -5%[46 µM] | ? | -1% | ·
ALDH1A1 inh | -7% | · | 16µM* | 28µM* | 2µM* | 10µM* | ? | 10% | ? | ·
Sfp inh | -1% | 11% | -8% | 28µM* | 22µM* | 35µM* | 56µM* | -22% | -4% | ·
KDM4E inh | ? | · | -6% | ? | ? | 14µM* | 4% | 2% | -8% | ·
G9a block | 8% | 79µM* | 0%[12.7 µM] | ? | 2.5µM* | 1.8µM* | 2µM* | 260% | 2%[59 µM] | -1%[59 µM]
miR-21 FLuc | 1% | 0% | -1% | -44% | -41% | 15% | 20% | 19% | -4% | -1%

#41 COc1ccccc1Cn1c(CNS(=O)(=O)c2cccc([N+](=O)[O-])c2)nc2cccnc21
#42 Cc1ccc(-c2cc3cccc[n+]3cc2-c2ccc(C)cc2)cc1
#43 CCC1Oc2ccc(C)cc2N(CC(=O)NCc2ccc(F)cc2)C1=O (stereo unspecified)
#44 COc1ccc(NC(=O)CCS(=O)(=O)c2cc3c(cc2C)NC(=O)CO3)cc1Cl
#45 Oc1ccccc1OCc1nc2ccccc2s1
#46 Oc1ccc(O)c(Cc2nc3ccccc3s2)c1
#47 CCCn1c(SCc2nc3ccccc3s2)n[nH]c1=O
Compound | 41 | 42 | 43 | 44 | 45 | 46 | 47
Lamin A splicing | -11%[46 µM] | ? | -17%[46 µM] | -10%[46 µM] | 3% | ? | ·
ALDH1A1 inh | · | ? | · | · | -12% | 20µM* | ?
Sfp inh | · | -7% | · | · | ? | 50µM* | 0%
KDM4E inh | · | ? | · | · | 2% | ? | -4%
G9a block | 33%[59 µM] | 15%[59 µM] | 3%[59 µM] | -2%[59 µM] | ? | 10µM* | 56µM*
miR-21 FLuc | 1% | ? | 5% | ? | -57% | 5% | -65%

Bioassay records from PubChem.
